From PubChem BioAssay (NCATS)
Values joined by “and” are separate entries in the source; they are usually repeats but may differ in a detail not shown here. Equal entries are not always repeated. The entries are a selection whose mix differs from that of the whole data set. Active and inactive are the calls of the source. The rule behind the calls is not given here.

Assay: qHTS assay for small molecule activators of the human pregnane X receptor (PXR) signaling pathway (AID 720659); note: 0% is about no effect
Conditions: DPX-2 HepG2 CYP3A4-luciferase, 24 h; at 92.3 µM (top of the series)
With `Cc1c([N+](=O)[O-])cccc1[N+](=O)[O-]` the activation was inactive: -12.1% and inactive: 28.4%.
With `[NH4+].[O-][Cl+3]([O-])([O-])[O-]` the activation was inactive: -7.5%.
For `O=[N+]([O-])[O-].[NH4+]`, the activation was inactive: -5.9%.
For `O=[N+]([O-])c1cccc([N+](=O)[O-])c1`, the activation was inactive: -0.464% and inactive: -2.97%.
For `Cc1ccc([N+](=O)[O-])c([N+](=O)[O-])c1`, the activation was inactive: -8.11% and inactive: 0.762%.
With `Cc1ccc([N+](=O)[O-])cc1[N+](=O)[O-]` the activation was inactive: -9.42% and inactive: 0.498%.
For `CCOP(=O)(CC)OCC`, the activation was inactive: -6.63%.
For `CCC(C)(OO)OOC(C)(CC)OO` (centres undefined), the activation was inactive: -10.2% and inactive: 14.4%.
In the case of `Cc1cccc([N+](=O)[O-])c1[N+](=O)[O-]`, the activation was inactive: -3.38%.
